From US12551532B2, “Long-acting amylin receptor agonists and uses thereof” (Eli Lilly and Company, priority 2021, dated 2026)

Chains of the proteins cited; added tags and fusions are not shown. Residues count along the entry.
UniProt O60894, 27-148 partner: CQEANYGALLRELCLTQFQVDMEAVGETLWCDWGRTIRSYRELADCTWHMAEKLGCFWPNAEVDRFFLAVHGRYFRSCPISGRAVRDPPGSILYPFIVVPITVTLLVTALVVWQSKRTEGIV

What was measured:
[1] = molecular target: T1, hAMY1R (Homo sapiens, UniProt O60894+P30988); assay: hAMY1R cAMP functional activity (HTRF); format: cell-based; conditions: ±SE; UMUC3 cells overexpressing hAMY1R; relative EC50
T1 construct: expressed in transfected cells
Protocol: (§1) The AMY1 and CT receptors are GPCRs that are functionally coupled to Gas proteins. […] In vitro activity of peptides is measured by the amount of cAMP formed in human AMY1R and CTR overexpressed cells.
Human AMY1R stable cell lines are generated by further transfecting human RAMP1-pCMVpuroPB (T14213) into UMUC3 hCTR clone cells. After selection, the mRNA levels human RAMP1 from different clones are measured to confirm the expression of human AMY1R.
(§2) hAMY1R cells are cultured in MEM 1× (Corning) supplemented with 10% FBS, 1% antibiotic/antimycotic solution, 1 mM sodium pyruvate, 1×MEM NEAA, 1× GlutaMAX-I, 200 μg/mL hygromycin B, and 0.4 μg/mL puromycin. The hCTR cells are cultured in the same medium lacking the puromycin. Cultured cells are grown to 70% confluency and then incubated overnight with fresh medium.
Peptides diluted in DMSO are added (200 nL/well) in a 1:3 dilution series using ECHO acoustic liquid handler (Beckman). Cultured cells are detached with TrypLE Express (Gibco), resuspended in assay buffer, and 10 μL containing 1200 cells/well (hCTR) or 1500 cells/well (hAMY1R) are dispensed into each well. The plates are incubated at room temperature for 1 hour.
(§3) The amount of intracellular cAMP is quantitated using HTRF technology (Homogeneous Time Resolved Fluorescence; Cisbio) as per vendor instructions. […]

[2] = molecular target: T2, human CT receptors (Homo sapiens, UniProt P30988); assay: hCTR cAMP functional activity (HTRF); format: cell-based; conditions: ±SE; UMUC3 cells overexpressing hCTR; relative EC50
T2 construct: expressed in transfected cells
T2 sequence (P30988 25-474): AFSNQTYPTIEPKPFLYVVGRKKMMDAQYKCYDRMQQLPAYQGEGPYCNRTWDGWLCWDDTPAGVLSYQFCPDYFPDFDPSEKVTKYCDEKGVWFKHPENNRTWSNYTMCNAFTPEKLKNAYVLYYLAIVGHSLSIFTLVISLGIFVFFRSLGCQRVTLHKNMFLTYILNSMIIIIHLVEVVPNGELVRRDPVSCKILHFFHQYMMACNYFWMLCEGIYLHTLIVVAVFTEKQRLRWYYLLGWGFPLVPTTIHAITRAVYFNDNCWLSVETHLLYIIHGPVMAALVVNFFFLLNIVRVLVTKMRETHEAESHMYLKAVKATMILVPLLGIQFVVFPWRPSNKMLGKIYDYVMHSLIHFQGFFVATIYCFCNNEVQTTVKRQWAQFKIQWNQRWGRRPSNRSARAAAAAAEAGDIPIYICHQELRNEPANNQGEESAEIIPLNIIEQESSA
Protocol: as §1
Human CT receptors are stably expressed in human urinary bladder cells (UM-UC-3, or UMUC3) under control of a pcDNA expression vector. […] After 20 days under selection, the mRNA levels from different clones are measured to confirm the expression of hCTR. To determine the function of over-expressed hCTR cells, the intracellular cAMP levels in response to salmon calcitonin are measured and compared to the expression of hCTR mRNA in each clone.
as §2
Peptides diluted in DMSO are added (200 nL/well) in a 1:3 dilution series using ECHO acoustic liquid handler (Beckman). […]
as §3

[3] = molecular target: T1, hAMY1R; assay: hAMY1R competitive radioligand binding filter assay (125I-rAMY); conditions: ± SE; membranes of hAMY1R overexpressing cells
Protocol: (§4) The equilibrium dissociation constants (Kd) for the various receptor/radioligand interactions are determined from saturation binding analysis using the same reagents and buffers as described below for compound testing.
The receptor binding affinity (Ki) of rAMY, hCT, and hAMY agonist peptides are determined from a competitive radioligand binding filter assay. The assay buffer consists of (in mM) 50 HEPES, pH 7.1, 5 MgCl2, 5 KCl, 0.2% (w/v) bacitracin, 0.003% (w/v) saponin and is used to dilute radioligand and membrane preparation. Binding reactions are carried out in 0.1 mL total reaction volume in a polystyrene 96 deep-well assay block. […] Test compounds and non-specific binding (NSB—defined as 300 nM rAMY) are added to aliquots of radioactivity buffer. […] The binding reaction is initiated by the addition of 0.05 mL of 200 μg/mL hAMY1R diluted in assay buffer to the radioactivity. Assay blocks are gently vortexed, sealed with parafilm, and incubated at RT for approximately 20 hours. […]

[4] = molecular target: T3, human calcitonin receptor (hCTR) (Homo sapiens, UniProt P30988); assay: hCTR competitive radioligand binding filter assay (125I-hCT); conditions: ± SE; membranes of hCTR overexpressing cells
T3 construct: expressed in transfected cells; host or cells: membranes of UM-UC-3 (UMUC3) cells stably expressing human CTa
T3 sequence (P30988 25-474): T2 sequence (P30988 25-474)
Protocol: as §4
The receptor binding affinity (Ki) of rAMY, hCT, and hAMY agonist peptides on hCTR membranes is determined from a competitive radioligand binding filter assay.

[5] = molecular target: T4, amylin receptor (Homo sapiens, UniProt P30988); conditions: background statement; cited from earlier work
T4 sequence (P30988 25-474): T2 sequence (P30988 25-474)

- EC50 [1]: 0.043 ± 0.0044 nM
- EC50 [2]: 2.4 ± 0.402 nM
- Ki [3]: 0.0196 ± 0.002 nM
- Ki [4]: 0.256 ± 0.087 nM
Structure (SMILES): CC[C@H](C)[C@H](NC(=O)[C@@H]1CCCN1C(=O)CNC(=O)[C@H](Cc1ccccc1)NC(=O)[C@H](CC(N)=O)NC(=O)[C@H](CC(N)=O)NC(=O)[C@H](CO)NC(=O)[C@H](CO)NC(=O)[C@H](Cc1c[nH]cn1)NC(=O)[C@@H](NC(=O)[C@H](CC(C)C)NC(=O)[C@H](Cc1ccccc1)NC(=O)[C@H](CC(N)=O)NC(=O)[C@H](C)NC(=O)[C@H](CC(C)C)NC(=O)[C@H](CCCNC(=N)N)NC(=O)[C@H](CCC(N)=O)NC(=O)[C@@H](NC(=O)[C@H](C)NC(=O)[C@@H]1CSSC[C@H](NC(=O)[C@@H](N)CCCCN)C(=O)N[C@@H](CC(N)=O)C(=O)N[C@@H]([C@@H](C)O)C(=O)N[C@@H](C)C(=O)N[C@@H]([C@@H](C)O)C(=O)N1)[C@@H](C)O)C(C)C)C(=O)N[C@@H](CC(C)C)C(=O)N1CCC[C@H]1C(=O)N1CCC[C@H]1C(=O)N[C@H](C(=O)N[C@@H](CC(N)=O)C(=O)N[C@H](C(=O)NCC(=O)N[C@@H](CO)C(=O)N[C@@H](CC(N)=O)C(=O)N[C@H](C(=O)N[C@@H](Cc1ccc(O)cc1)C(N)=O)[C@@H](C)O)C(C)C)[C@@H](C)O [Compound XV, reference compound]
- times more potent on the amylin receptor than on the calcitonin receptor [5]: 14 times
